For the assay, the target named is T1, Caspase-6 (Homo sapiens, UniProt P55212).
T1 sequence (P55212 whole entry): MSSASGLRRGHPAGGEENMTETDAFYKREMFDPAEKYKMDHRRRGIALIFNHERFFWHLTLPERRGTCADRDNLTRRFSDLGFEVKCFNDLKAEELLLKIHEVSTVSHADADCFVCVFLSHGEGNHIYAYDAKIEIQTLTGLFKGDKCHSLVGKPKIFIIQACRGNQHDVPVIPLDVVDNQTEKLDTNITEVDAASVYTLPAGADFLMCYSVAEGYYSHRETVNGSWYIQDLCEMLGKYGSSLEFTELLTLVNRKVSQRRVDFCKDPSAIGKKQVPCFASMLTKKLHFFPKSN
As to the kind of experiment: Enzyme Inhibition Assay. The protocol:
The caspase enzymatic activity was determined by measuring the accumulation of a fluorogenic product. All assays were prepared in 96-well format. Recombinant caspase enzyme was first assayed to determine the optimal concentration for each experiment. Peptide inhibitors with known IC50 values were tested together with the compounds as a control for each caspase assay. After incubation, Amount of AMC released was determined by using a Victor microplate fluorometer (Perkin Elmer Life Sciences, Boston, MA) at excitation and emission wavelengths 355 nm and 460 nm, respectively. Compounds were tested in duplicate and IC50 curves were calculated for all inhibitors assayed. Final IC50 values were the average of 3 independent experiments.

Regarding `CCC(C)[C@H](NC(=O)[C@H](CCC(=O)O)NC(=O)[C@@H](NC(C)=O)C(C)C)C(=O)N[C@H](C=O)CC(=O)O` (stereo partly drawn) [(4S)-4-{[(1S)-1-{[(2S)-1-carboxy-3-oxopropan-2-yl]carbamoyl}-2-methylbutyl]carbamoyl}-4-[(2S)-2-acetamido-3-methylbutanamido]butanoic acid], the IC50 came out at 8 nM.

As a reminder, the IC50 is the point on the concentration scale where inhibition reaches its midpoint. Lower therefore signals greater potency.

The values above are taken from BindingDB's records for doi:10.1021/jm900135r (Washington University, 2009).
